Results taken from patent publication US20230075368A1, “IDENTIFICATION OF AN EGFR-BIN3 PATHWAY THAT ACTIVELY SUPPRESSES INVASION AND REDUCES TUMOR SIZE IN GLIOBLASTOMA” (The United States Govemment as represented by the …, priority 2020, published 2023).

Tests used:
Assay type in all cases: cell-based, human
Mayo PDX cells = experiment: Matrigel invasion assay
Description: Invasion status of cells was tested with Matrigel Boyden chamber assays (Fisher). 1×10^5 cells were plated on BD BioCoat Matrigel invasion chambers. 24 hours after treatment with drugs, invaded cells were stained with the HEMA-3 kit (Fisher). Invaded cells were counted in 4-5 random fields.
An equal number of cells (5×10^4) were seeded on Matrigel coated inserts, and were untreated (control vehicle) or stimulated with 50 ng/ml EGF for 24 hours, cells invading to the other side of the membrane were counted and presented as percentage cell invasion. […] A similar invasion assay was conducted on GBM26 cells (FIG. 2D). […] Cells were transfected with EGFR or scrambled siRNA for 48 hours before the invasion assay. A similar invasion assay was performed on GBM6 (FIG. 2G). […] Cells were transiently transfected with empty or EGFR wildtype (EGFRwt) overexpressing vector, and invasion assay was performed after 48 hours after transfection. Overexpression of EGFR in GBM12 and GBM14 was confirmed by Western blotting (FIG. 2J). […] Cells were treated with or without 50 ng/ml EGF for 48 hours before the assay. The Western blot images are representative of three independent biological replicates. Actin served as loading control. Data are represented as mean±SEM from three independent experiments. *P<0.05, **P<0.01, n.s. not significant, unpaired two-tailed Student's t-test. […]

BIN3 = BIN3 expression by Western blot / real-time PCR; conditions: cetuximab with tofacitinib, 24 hours; GBM12, GBM6
Description: Whole protein extracts from cells or tumor tissues were analyzed by western blot as previously described (Altieri et al. (2015) Surg. Technol. Int 27: 297-302). Mayo PDX cells were serum starved overnight. Following treatment for specific time, cells were harvested and lysed. The human glioblastoma tissues were ground in liquid nitrogen and then were lysed. EGFR (06-847) antibody was from Millipore. DOCK7 was from Proteintech (Rosemont, Ill.). pEGFR (2236), STAT3 (12640), pSTAT3 (9145), cdc42(4376), and RhoA (4695) antibodies were from Cell Signaling Technology (Danvers, Mass.). TGFα antibody was from R&D system. BIN3 (sc-514396) and (3-Actin (sc-47778) were from Santa Cruz Biotechnology (Dallas, Tex.).
Total RNA from cells was extracted by TRIzol Reagent (Ambion). First-strand cDNA and PCR was performed as described previously (Altieri et al. (2015) Surg. Technol. Int. 27: 297-302). The expression of each gene was normalized to GAPDH as a reference. […]
Referring to FIG. 7A-0, EGF-mediated BIN3 upregulation inhibits invasiveness. […] BIN3 mRNA levels in EGF-treated PDXs were determined by real-time PCR (FIG. 7B). […] Referring to FIG. 7F, knockdown efficiency of BIN3 siRNA was analyzed by Western blotting. […] EGR1 mRNA levels in GBM12 and GBM6 after EGF treatment were determined by real-time PCR (RT-PCR) (FIG. 7I). […] Knockdown efficiency of EGR-1 siRNA was analyzed by Western blotting (FIG. 7O). […]

EGFR = experiment: Western blot of pEGFR and EGFR
Description: Mayo PDX cells were serum starved overnight. Following treatment for specific time, cells were harvested and lysed. The human glioblastoma tissues were ground in liquid nitrogen and then were lysed. […] TGFα antibody was from R&D system.

## cetuximab: blocks EGFR ligand binding
Mayo PDX cells; Cetuximab 100 μg/ml, 24 hours, GBM12
  cell invasion: unaffected
Mayo PDX cells; cetuximab with tofacitinib, GBM6 and GBM12
  tofacitinib-induced suppression of invasion: completely inhibits
BIN3
  tofacitinib-induced BIN3 upregulation: completely inhibits
EGFR; GBM12, EGF 50 ng/ml
  EGF-induced tyrosine phosphorylation of the EGFR: completely blocks
EGFR; cetuximab with tofacitinib, 24 hours, GBM12, GBM6
  tofacitinib-induced EGFR activation: completely inhibits
